Earlier results on one compound are cited in US20110104272A1 (DEPOMED, INC., priority 2009, published 2011).

The conditions of this data set: water at 22° C.

Turning to `CC(=O)Nc1ccc(O)cc1` [Acetaminophen, N-(4-hydroxyphenyl)acetamine], the solubility in water was 1000 to 5000 µg/mL.
